Experimental data reported in patent publication US20030143225A1 (Genentech, published 2003).

Protein sequences, listed by entry. Tags and fused reporters are not part of them. Lines headed by an entry give the natural chain unless they say otherwise; changes in a name come on top.
UniProt P13726: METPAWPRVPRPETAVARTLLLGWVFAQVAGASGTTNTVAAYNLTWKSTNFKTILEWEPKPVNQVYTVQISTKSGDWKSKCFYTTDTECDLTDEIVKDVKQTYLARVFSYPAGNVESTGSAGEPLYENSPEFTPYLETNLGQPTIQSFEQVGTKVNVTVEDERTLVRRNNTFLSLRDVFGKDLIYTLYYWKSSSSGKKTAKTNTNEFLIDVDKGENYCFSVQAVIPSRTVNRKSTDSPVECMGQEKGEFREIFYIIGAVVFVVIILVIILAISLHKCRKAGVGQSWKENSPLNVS

Target: TF (1-234) lacking the cytoplasmic domain, relipidated (human, UniProt P13726 33-266)
Assay: cell-based or functional assay

B1: D3H44 IgG2 (antibody, V domains shown)
VH: EVQLVESGGGLVQPGGSLRLSCAASGFNIKEYYMHWVRQAPGKGLEWVGLIDPEQGNTIYDPKFQDRATISADNSKNTAYLQMNSLRAEDTAVYYCARDTAAYFDYWGQGTLVTVSS
VL: DIQMTQSPSSLSASVGDRVTITCRASRDIKSYLNWYQQKPGKAPKVLIYYATSLAEGVPSRFSGSGSGTDYTLTISSLQPEDFATYYCLQHGESPWTFGQGTKVEIKR
B1 was tested, and the “F.X activation IC50” value was 0.073 nM.
